Sequences of proteins named here, by UniProt entry; tags and fusion partners are left off.
UniProt Q13422, whole entry: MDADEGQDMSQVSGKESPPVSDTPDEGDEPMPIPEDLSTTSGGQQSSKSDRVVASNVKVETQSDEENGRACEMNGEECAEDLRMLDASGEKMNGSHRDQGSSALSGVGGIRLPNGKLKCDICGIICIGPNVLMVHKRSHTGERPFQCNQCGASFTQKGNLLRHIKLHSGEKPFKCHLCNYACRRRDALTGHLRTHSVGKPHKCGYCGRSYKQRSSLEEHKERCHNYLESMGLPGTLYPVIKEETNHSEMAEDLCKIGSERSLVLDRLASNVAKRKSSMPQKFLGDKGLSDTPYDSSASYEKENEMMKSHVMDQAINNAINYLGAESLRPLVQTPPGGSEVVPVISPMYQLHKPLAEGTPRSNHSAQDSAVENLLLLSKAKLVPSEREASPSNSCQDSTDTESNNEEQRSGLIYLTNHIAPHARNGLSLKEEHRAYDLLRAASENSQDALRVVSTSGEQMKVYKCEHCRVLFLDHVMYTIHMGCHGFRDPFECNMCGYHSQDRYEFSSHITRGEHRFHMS
UniProt Q96SW2, whole entry: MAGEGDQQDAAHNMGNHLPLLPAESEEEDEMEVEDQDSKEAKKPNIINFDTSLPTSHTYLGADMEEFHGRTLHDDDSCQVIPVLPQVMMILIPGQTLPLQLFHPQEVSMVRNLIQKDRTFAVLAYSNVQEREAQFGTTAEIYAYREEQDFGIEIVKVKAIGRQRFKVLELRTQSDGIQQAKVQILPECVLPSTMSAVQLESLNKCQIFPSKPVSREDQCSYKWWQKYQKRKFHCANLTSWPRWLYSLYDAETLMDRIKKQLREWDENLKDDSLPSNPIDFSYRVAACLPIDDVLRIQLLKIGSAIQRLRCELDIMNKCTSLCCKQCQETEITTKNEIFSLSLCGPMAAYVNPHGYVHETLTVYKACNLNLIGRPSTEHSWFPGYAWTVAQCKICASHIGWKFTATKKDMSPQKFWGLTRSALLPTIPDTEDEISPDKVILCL
UniProt P48729, whole entry: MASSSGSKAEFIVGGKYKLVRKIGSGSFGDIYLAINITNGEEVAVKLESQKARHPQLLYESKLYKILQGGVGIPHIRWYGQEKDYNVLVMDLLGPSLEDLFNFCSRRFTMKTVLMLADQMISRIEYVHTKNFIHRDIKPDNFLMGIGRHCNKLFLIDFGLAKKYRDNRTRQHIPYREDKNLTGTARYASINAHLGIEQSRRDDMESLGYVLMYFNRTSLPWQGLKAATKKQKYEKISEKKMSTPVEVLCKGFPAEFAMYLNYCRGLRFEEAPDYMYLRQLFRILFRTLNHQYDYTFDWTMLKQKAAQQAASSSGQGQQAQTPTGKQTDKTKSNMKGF
UniProt Q9UKS7, whole entry: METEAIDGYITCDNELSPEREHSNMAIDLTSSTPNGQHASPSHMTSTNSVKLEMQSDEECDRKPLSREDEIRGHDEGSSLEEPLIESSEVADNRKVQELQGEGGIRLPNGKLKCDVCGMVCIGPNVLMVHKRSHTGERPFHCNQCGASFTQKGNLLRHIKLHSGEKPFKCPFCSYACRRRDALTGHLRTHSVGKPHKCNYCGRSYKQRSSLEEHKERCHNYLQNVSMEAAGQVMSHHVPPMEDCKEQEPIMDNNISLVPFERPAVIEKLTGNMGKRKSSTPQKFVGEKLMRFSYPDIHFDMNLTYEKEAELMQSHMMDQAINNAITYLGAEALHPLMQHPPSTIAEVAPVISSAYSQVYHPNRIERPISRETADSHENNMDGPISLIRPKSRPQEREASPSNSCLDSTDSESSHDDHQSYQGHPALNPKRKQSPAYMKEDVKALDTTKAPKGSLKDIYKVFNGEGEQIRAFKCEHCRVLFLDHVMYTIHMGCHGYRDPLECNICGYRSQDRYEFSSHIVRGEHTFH
UniProt P30291, whole entry: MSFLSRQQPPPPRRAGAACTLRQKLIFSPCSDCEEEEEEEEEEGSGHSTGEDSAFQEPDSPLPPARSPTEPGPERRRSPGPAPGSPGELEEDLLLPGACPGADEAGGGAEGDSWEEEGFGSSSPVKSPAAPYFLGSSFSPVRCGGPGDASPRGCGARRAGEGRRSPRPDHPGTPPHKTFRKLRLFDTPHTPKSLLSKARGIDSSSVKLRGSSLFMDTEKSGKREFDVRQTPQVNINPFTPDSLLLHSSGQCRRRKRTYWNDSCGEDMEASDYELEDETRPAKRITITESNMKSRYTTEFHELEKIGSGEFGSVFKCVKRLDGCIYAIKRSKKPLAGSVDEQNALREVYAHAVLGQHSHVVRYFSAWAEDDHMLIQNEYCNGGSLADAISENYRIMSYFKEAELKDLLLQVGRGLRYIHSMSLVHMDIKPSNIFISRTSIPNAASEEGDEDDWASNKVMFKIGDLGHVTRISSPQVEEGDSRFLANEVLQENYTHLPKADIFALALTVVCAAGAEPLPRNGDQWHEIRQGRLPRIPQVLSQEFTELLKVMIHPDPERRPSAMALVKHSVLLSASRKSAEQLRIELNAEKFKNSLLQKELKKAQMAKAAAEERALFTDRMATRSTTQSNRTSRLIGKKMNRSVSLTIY
UniProt P15170, whole entry: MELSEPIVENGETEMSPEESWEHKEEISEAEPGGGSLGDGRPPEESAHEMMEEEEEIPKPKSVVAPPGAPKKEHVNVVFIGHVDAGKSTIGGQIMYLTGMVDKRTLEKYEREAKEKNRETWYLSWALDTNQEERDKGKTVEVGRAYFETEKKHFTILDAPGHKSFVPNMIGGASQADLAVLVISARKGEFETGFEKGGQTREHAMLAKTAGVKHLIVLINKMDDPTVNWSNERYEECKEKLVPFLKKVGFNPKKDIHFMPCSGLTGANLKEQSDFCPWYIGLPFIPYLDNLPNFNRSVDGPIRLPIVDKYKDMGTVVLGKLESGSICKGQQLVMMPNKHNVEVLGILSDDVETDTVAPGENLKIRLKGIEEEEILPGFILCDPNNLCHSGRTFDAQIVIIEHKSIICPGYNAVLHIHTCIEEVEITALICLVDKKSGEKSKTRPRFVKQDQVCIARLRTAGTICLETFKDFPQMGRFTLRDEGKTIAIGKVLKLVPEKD
UniProt Q9UKT9, whole entry: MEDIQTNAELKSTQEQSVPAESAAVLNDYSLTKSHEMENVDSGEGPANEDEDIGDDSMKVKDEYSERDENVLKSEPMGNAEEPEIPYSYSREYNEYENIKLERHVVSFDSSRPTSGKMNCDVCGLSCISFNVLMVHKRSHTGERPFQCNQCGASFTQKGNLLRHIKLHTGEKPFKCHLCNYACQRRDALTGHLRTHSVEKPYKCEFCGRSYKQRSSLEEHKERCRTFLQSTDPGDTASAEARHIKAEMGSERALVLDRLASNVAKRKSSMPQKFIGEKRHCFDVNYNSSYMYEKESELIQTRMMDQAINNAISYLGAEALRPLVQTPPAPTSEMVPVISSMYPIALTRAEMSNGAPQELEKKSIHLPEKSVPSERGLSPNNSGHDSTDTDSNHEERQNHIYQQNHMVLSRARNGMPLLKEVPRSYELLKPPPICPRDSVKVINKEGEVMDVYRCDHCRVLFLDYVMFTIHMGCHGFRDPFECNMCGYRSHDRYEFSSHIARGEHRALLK
UniProt Q16531, whole entry partner: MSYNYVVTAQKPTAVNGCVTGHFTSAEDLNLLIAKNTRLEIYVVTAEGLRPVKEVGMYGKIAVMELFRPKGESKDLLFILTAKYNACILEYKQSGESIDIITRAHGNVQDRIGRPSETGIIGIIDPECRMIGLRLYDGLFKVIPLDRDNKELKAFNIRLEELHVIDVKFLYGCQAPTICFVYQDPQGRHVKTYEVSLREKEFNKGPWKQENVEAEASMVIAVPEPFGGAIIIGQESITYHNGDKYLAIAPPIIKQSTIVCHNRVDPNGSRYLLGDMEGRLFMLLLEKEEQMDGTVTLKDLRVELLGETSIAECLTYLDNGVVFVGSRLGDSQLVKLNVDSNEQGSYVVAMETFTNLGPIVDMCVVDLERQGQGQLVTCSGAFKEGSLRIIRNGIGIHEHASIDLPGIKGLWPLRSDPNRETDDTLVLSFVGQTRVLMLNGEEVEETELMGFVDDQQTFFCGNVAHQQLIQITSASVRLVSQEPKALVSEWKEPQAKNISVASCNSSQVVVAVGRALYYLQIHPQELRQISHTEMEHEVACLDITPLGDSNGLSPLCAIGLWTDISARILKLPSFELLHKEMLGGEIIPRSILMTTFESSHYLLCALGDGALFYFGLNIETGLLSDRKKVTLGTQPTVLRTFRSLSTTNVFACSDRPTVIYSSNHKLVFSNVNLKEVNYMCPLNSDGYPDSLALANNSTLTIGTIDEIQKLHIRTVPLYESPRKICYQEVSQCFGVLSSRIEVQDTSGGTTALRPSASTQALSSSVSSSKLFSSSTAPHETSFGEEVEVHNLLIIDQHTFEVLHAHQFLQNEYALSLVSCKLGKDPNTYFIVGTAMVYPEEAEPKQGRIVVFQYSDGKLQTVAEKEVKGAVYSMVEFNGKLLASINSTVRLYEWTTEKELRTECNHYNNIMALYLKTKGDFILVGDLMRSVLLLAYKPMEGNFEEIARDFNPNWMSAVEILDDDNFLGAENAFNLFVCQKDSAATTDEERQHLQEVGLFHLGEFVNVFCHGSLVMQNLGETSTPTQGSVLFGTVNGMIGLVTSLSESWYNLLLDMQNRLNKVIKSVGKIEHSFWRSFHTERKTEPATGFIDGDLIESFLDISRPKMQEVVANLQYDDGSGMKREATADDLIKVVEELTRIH

In patent EP4834897A1, “COMPOUNDS WITH TWO AZAHETEROCYCLES SUBSTITUTED ISOINDOLINONE SKELETON AND USES THEREOF” (dated 2026):

How the values were obtained:
IKZF1 = IKZF1 (Homo sapiens, UniProt Q13422+Q96SW2); assay: Western blot assay of substrate protein degradation in hPBMCs; conditions: 24 hours treatment, compounds at 50 nM and 500 nM (concentration behind the class not stated)
CK1α = CK1α (Homo sapiens, UniProt P48729+Q96SW2); assay: as above; conditions: 24 hours treatment, compounds at 50 nM and 500 nM (concentration behind the class not stated)
IKZF2 = IKZF2 (Homo sapiens, UniProt Q96SW2+Q9UKS7); assay: as above; conditions: 24 hours treatment, compounds at 50 nM and 500 nM (concentration behind the class not stated)
WEE1 = WEE1 (Homo sapiens, UniProt P30291+Q96SW2); assay: as above; conditions: 24 hours treatment, compounds at 50 nM and 500 nM (concentration behind the class not stated)
GSPT1 = GSPT1 (Homo sapiens, UniProt P15170+Q96SW2); assay: as above; conditions: 24 hours treatment, compounds at 50 nM and 500 nM (concentration behind the class not stated)
IKZF3 = IKZF3 (Homo sapiens, UniProt Q96SW2+Q9UKT9); assay: as above; conditions: 24 hours treatment, compounds at 50 nM and 500 nM (concentration behind the class not stated)
CRBN = CRBN (Homo sapiens, UniProt Q96SW2); assay: CRBN binding affinity by HTRF (CEREBLON BINDING kit); conditions: for Inhibition Rate at 0.5 µM (%) / Inhibition Rate at 2 µM (%): CRBN binding, HTRF; for Inhibition Rate at 0.5 µM (%): compound at 0.5 µM; for Inhibition Rate at 2 µM (%): compound at 2 µM; for pIC50: read-out: HTRF IC50, human Cereblon WT GST-tagged protein, 3 hours at room temperature

Row | SMILES | substrate protein remaining % (IKZF 1) (IKZF1) | substrate protein remaining % (CK1a) (CK1α) | substrate protein remaining % (IKZF2) (IKZF2) | substrate protein remaining % (WEE1) (WEE1) | substrate protein remaining % (GSPT1) (GSPT1) | substrate protein remaining % (IKZF3) (IKZF3) | Inhibition Rate at 0.5 µM (%) (CRBN) | Inhibition Rate at 2 µM (%) (CRBN) | pIC50 (CRBN)
1 | CC1(C)CCC(C(=O)N2CCN(C3CCN(Cc4cc(F)c5c(c4)CN(C4CCC(=O)NC4=O)C5=O)CC3(F)F)CC2)=C(c2ccc(Cl)cc2)C1 (stereo not drawn) | B (80%< substrate protein remaining %≤ 100%) | A (0% ≤ substrate protein remaining % ≤ 80%) | B (80%< substrate protein remaining %≤ 100%) | B (80%< substrate protein remaining %≤ 100%) | A (0% ≤ substrate protein remaining % ≤ 80%) | B (80%< substrate protein remaining %≤ 100%) | a5 (53% < a5 ≤ 60%) | a8 (80% < a8 ≤100%) | –
2 | O=C1CCC(N2Cc3c(ccc(CN4CCC(N5CCN(c6cccc(Cl)c6Cl)CC5)CC4)c3F)C2=O)C(=O)N1 (stereo not drawn) | A (0% ≤ substrate protein remaining % ≤ 80%) | B (80%< substrate protein remaining %≤ 100%) | B (80%< substrate protein remaining %≤ 100%) | A (0% ≤ substrate protein remaining % ≤ 80%) | B (80%< substrate protein remaining %≤ 100%) | A (0% ≤ substrate protein remaining % ≤ 80%) | – | – | 6.00 to 6.30
3 | O=C1CCC(N2Cc3c(CN4CCC(N5CCN(c6noc7cc(F)ccc67)CC5)C(F)(F)C4)cccc3C2=S)C(=O)N1 (stereo not drawn) | B (80%< substrate protein remaining %≤ 100%) | B (80%< substrate protein remaining %≤ 100%) | B (80%< substrate protein remaining %≤ 100%) | A (0% ≤ substrate protein remaining % ≤ 80%) | A (0% ≤ substrate protein remaining % ≤ 80%) | B (80%< substrate protein remaining %≤ 100%) | a5 (53% < a5 ≤ 60%) | a8 (80% < a8 ≤100%) | –
4 | O=C1CCC(N2Cc3ccc(CN4CCC(N5CCN(C(c6ccccc6)c6ccccc6)CC5)C(F)(F)C4)cc3C2=S)C(=O)N1 (stereo not drawn) | B (80%< substrate protein remaining %≤ 100%) | B (80%< substrate protein remaining %≤ 100%) | B (80%< substrate protein remaining %≤ 100%) | B (80%< substrate protein remaining %≤ 100%) | B (80%< substrate protein remaining %≤ 100%) | A (0% ≤ substrate protein remaining % ≤ 80%) | a4 (40% < a4 ≤ 53%) | a7 (70% < a7 ≤80%) | –
5 | O=C1CCC(N2Cc3cc(CN4CCC(N5CCN(C(c6ccccc6)c6ccccc6)CC5)CC4)cc(F)c3C2=O)C(=O)N1 (stereo not drawn) | B (80%< substrate protein remaining %≤ 100%) | B (80%< substrate protein remaining %≤ 100%) | A (0% ≤ substrate protein remaining % ≤ 80%) | B (80%< substrate protein remaining %≤ 100%) | A (0% ≤ substrate protein remaining % ≤ 80%) | A (0% ≤ substrate protein remaining % ≤ 80%) | – | – | 6.00 to 6.30
6 | O=C1CCC(N2Cc3cc(C(=O)N4CCC(N5CCN(c6cccc(Cl)c6Cl)CC5)CC4)c(F)cc3C2=O)C(=O)N1 (stereo not drawn) | B (80%< substrate protein remaining %≤ 100%) | B (80%< substrate protein remaining %≤ 100%) | B (80%< substrate protein remaining %≤ 100%) | B (80%< substrate protein remaining %≤ 100%) | A (0% ≤ substrate protein remaining % ≤ 80%) | B (80%< substrate protein remaining %≤ 100%) | a2 (20% < a2 ≤ 30%) | a5 (53% < a5 ≤ 60%) | –
7 | CC1(C)CCC(C(=O)N2CCN(C3CCN(Cc4ccc5c(c4F)CN(C4CCC(=O)NC4=O)C5=O)CC3(F)F)CC2)=C(c2ccc(Cl)cc2)C1 (stereo not drawn) | A (0% ≤ substrate protein remaining % ≤ 80%) | B (80%< substrate protein remaining %≤ 100%) | A (0% ≤ substrate protein remaining % ≤ 80%) | B (80%< substrate protein remaining %≤ 100%) | A (0% ≤ substrate protein remaining % ≤ 80%) | A (0% ≤ substrate protein remaining % ≤ 80%) | – | – | 6.00 to 6.30
8 | O=C1CCC(N2Cc3ccc(C(=O)N4CCC(N5CCN(C(c6ccccc6)c6ccccc6)CC5)C(F)(F)C4)cc3C2=O)C(=O)N1 (stereo not drawn) | A (0% ≤ substrate protein remaining % ≤ 80%) | A (0% ≤ substrate protein remaining % ≤ 80%) | B (80%< substrate protein remaining %≤ 100%) | A (0% ≤ substrate protein remaining % ≤ 80%) | A (0% ≤ substrate protein remaining % ≤ 80%) | A (0% ≤ substrate protein remaining % ≤ 80%) | a2 (20% < a2 ≤ 30%) | a6 (60% < a6 ≤ 70%) | –
9 | O=C1CCC(N2Cc3cccc(CN4CCC(N5CC=C(c6cccc(Cl)c6Cl)CC5)C(F)(F)C4)c3C2=O)C(=O)N1 (stereo not drawn) | B (80%< substrate protein remaining %≤ 100%) | B (80%< substrate protein remaining %≤ 100%) | B (80%< substrate protein remaining %≤ 100%) | B (80%< substrate protein remaining %≤ 100%) | A (0% ≤ substrate protein remaining % ≤ 80%) | B (80%< substrate protein remaining %≤ 100%) | a4 (40% < a4 ≤ 53%) | a6 (60% < a6 ≤ 70%) | –
10 | O=C1CCC(N2Cc3cc(C(=O)N4CCC(N5CCN(C(c6ccccc6)c6ccccn6)CC5)C(F)(F)C4)ccc3C2=O)C(=O)N1 (stereo not drawn) | B (80%< substrate protein remaining %≤ 100%) | B (80%< substrate protein remaining %≤ 100%) | A (0% ≤ substrate protein remaining % ≤ 80%) | B (80%< substrate protein remaining %≤ 100%) | A (0% ≤ substrate protein remaining % ≤ 80%) | A (0% ≤ substrate protein remaining % ≤ 80%) | a4 (40% < a4 ≤ 53%) | a6 (60% < a6 ≤ 70%) | –
11 | O=C1CCC(N2Cc3cc(C(=O)N4CCC(N5CCN(c6noc7cc(F)ccc67)CC5)CC4)cc(F)c3C2=O)C(=O)N1 (stereo not drawn) | B (80%< substrate protein remaining %≤ 100%) | A (0% ≤ substrate protein remaining % ≤ 80%) | B (80%< substrate protein remaining %≤ 100%) | A (0% ≤ substrate protein remaining % ≤ 80%) | A (0% ≤ substrate protein remaining % ≤ 80%) | B (80%< substrate protein remaining %≤ 100%) | a3 (30% < a3 ≤ 40%) | a6 (60% < a6 ≤ 70%) | –
12 | O=C1CCC(N2Cc3cc(C(=O)N4CCC(N5CCN(c6cccc(Cl)c6Cl)CC5)CC4)cc(F)c3C2=O)C(=O)N1 (stereo not drawn) | B (80%< substrate protein remaining %≤ 100%) | B (80%< substrate protein remaining %≤ 100%) | B (80%< substrate protein remaining %≤ 100%) | B (80%< substrate protein remaining %≤ 100%) | A (0% ≤ substrate protein remaining % ≤ 80%) | B (80%< substrate protein remaining %≤ 100%) | a2 (20% < a2 ≤ 30%) | a5 (53% < a5 ≤ 60%) | –

pIC50: −log10 of the molar value.
